# Test: Solubility of crystalline salts in water, aqueous vehicles and biorelevant media
# Type: physicochemical
# Conditions: 0.9% NaCl solution, FaSSIF and FeSSIF
substance,measurement,value
"14-O-{[(1R,2R,4R)-4-Amino-2-hydroxy-cyclohexyl-sulfanyl]-acetyl}-mutilin acetate",solubility,surprisingly high

# Reference: patent US9120727B2, “Process for the preparation of pleuromutilins” (NABRIVA THERAPEUTICS AG, priority 2010, dated 2015)
